Data published in PubChem BioAssay AID487 (Columbia University Molecular Screening Center, 2006).
The list shows a part of the results, in another mix than the full data. Some results for these compounds are left out of this collection, so the calls shown say nothing about other tests. Active and inactive are the calls of the source.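 How the source made its calls: active means visually confirmed hit in the image check and inhibition above 20%; inconclusive means visually confirmed hit but inhibition not above 20%; inactive means no visual hit in the image check.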

Experiment: inhibitors of E-selectin induction by TNFa, primary screen, imaging, HUVEC, immunofluorescence, MLSMR starter and 10KST1 sets (AID 487);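 further: signal is fraction of cell area covered by stained E-selectin grains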
Conditions: HUVEC TNFalpha-induced E-selectin immunofluorescence imaging; at 2 µM; active compounds read high
In the case of `O=C(OC1CN2CCC1CC2)C(CO)(c1ccccc1)c1ccccc1` (stereo unspecified), the inhibition is reported as inactive: -14.3%.
